Assay results from US20130252959A1, “NITRIC OXIDE DONORS IN THERAPY OF NITRIC OXIDE DEFICIENCY-INDUCED DISTURBANCES OF CEREBRAL MICROCIRCULATION” (West-Falische Wilhelms-Universitat Munster, priority 2010, published 2013).

System: patients with SAH after aneurysmal rupture
Assay: Spasm (CVS) related brain infarcts on CCT in SAH patients, Molsidomine in addition to standard therapy vs standard Nimodipine therapy
Format: in vivo, human
Method: CCT at the beginning and after treatment were analyzed independently by two experienced neuroradiologists and were scanned for development of delayed brain infarction. At least three months after discharge a modified NIH-SS and a modified Rankin Scale (mRS) for clinical follow up was assessed. 83 patients admitted to the Intensive Care Unit of the University Hospital of Munster, Germany, after spontaneous aneurysmal SAH were registered in an observational study. Seven patients died in the first 124 hours after admission, without detected CVS probably related to malignant brain edema and severity of initial SAH. These patients were excluded from further evaluation. […] Nimodipine is a calcium channel antagonist and is the most rigorously studied and only drug approved by the US Food and Drug Administration (FDA) for use in the treatment of vasospasm (71). Due to evidence for CVS (TCD, clinical) all patients received diagnostic DSA and a rescue therapy with local, intra-arterial Nimodipine infusions over 20 minutes. […] Out of 76 individuals 27 patients received Molsidomine i.v. in an individually up-titrated dosage with a target quantity of 3.5-10 mg/h dependent on systemic circulation reactions. […] Within 24 h after admission to the ICU patients were treated with coil embolization and/or clipping. […] Appearance of CVS. Male and female patients with an age of 18 years and written informed consent for the additional application of Molsidomine. Spontaneous SAH after aneurysmal rupture and a clinical stage of Hunt and Hess grade Ito V. Exclusion criteria for patients were: No detected CVS. […] CCT and DSA images were independently reported by two experienced neuroradiologists for infarction and vasospasm. CVS related infarcts were diagnosed if hypodense lesions could be detected 72 h or later after therapeutic intervention or operation in comparison to the 24 h control CCT scan and being accompanied by clinical deterioration due to CVS or positive Doppler ultrasound or CVS in DSA.

COCCOC(=O)C1=C(C)NC(C)=C(C(=O)OC(C)C)C1c1cccc([N+](=O)[O-])c1 (stereo not shown) [Nimodipine, 1,4-dihydro-2,6-dimethyl-4-(3-nitrophenyl)-3,5-pyridinedicarboxylic acid 2-methoxyethyl 1-methylethyl ester]
Spasmus related infarcts, Infarction (number of patients) (Hunt & Hess grade III°): 4
Spasmus related infarcts, Infarction (number of patients) (Hunt & Hess grade II°): 1
Spasmus related infarcts, Infarction (number of patients) (Hunt & Hess grade IV°): 14
Spasmus related infarcts, Infarction (number of patients) (Hunt & Hess grade I°): 4
Spasmus related infarcts, Infarction (number of patients) (Hunt & Hess grade V°): 2
patients who developed CVS associated infarcts (share of group) (all Hunt & Hess grades): 51%
patients who developed CVS associated infarcts (number) (all Hunt & Hess grades, groups of 49 (Nimodipine) and 27 (Molsidomine)): 25
